Where a name gives a salt, the structure may show the parent alone.

Sequences of proteins named here, by UniProt entry; tags and fusion partners are left off. Residues count along the entry.
UniProt P14740, 37-767 limits assumed: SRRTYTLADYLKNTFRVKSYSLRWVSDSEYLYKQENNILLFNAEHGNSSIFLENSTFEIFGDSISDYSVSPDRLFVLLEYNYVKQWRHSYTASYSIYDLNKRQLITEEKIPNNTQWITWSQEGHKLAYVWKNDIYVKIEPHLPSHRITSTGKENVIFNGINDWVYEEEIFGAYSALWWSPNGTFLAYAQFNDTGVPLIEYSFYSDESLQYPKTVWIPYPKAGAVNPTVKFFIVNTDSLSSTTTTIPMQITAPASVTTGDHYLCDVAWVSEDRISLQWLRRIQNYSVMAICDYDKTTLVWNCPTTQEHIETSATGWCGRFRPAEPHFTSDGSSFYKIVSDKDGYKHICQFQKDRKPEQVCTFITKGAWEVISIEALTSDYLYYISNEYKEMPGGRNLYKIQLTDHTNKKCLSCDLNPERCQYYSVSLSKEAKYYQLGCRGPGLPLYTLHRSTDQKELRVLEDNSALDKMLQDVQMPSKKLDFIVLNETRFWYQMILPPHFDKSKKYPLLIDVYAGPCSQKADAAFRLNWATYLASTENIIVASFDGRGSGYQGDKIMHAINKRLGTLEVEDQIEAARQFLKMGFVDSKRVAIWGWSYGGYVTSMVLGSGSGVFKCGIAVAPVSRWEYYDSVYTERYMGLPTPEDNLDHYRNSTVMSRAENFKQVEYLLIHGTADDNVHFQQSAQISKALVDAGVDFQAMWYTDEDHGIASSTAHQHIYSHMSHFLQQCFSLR

The test deals with T1, rat plasma DPP-IV (Rattus norvegicus, UniProt P14740).
T1 construct: 5 µl of plasma are added to 96-well flat-bottom micortiter plates; from tissue; host or cells: rat plasma
Briefly: DPP-IV activity in rat plasma (modified Kubota assay). The test is classed as biochemical.
What is called IC50 is the concentration that inhibits the measured activity by half. Read a low IC50 as higher potency. In turn, `N#Cc1ccc(NC2CCC(NCC(=O)N3CCC[C@H]3C#N)CC2)nc1` (stereo partly drawn) [Ex. 2L, 1-[[[4-[(5-cyano-2-pyridinyl)amino]cyclohexyl]amino]acetyl]-2-cyano-(S)-pyrrolidine, dihydrochloride] had an IC50 of 4 nM.

On to `N#C[C@@H]1CCCN1C(=O)CNC1CCC(Nc2nc3ccccc3s2)CC1` (stereo partly drawn) [Ex. 2V, 1-[[[4-[(2-benzothiazolyl)amino]cyclohexyl]amino]acetyl]-2-cyano-(S)-pyrrolidine, dihydrochloride], for which the IC50 is 11 nM.

`N#C[C@@H]1CCCN1C(=O)CNC1CCC(NC(=O)C2CCCCC2)CC1` (stereo partly drawn) [Ex. 2X, 1-[[[4-[(cyclohexylcarbonyl)amino]cyclohexyl]amino]acetyl]-2-cyano-(S)-pyrrolidine monohydrochloride] gave an IC50 of 20 nM.

The molecule `N#C[C@@H]1CCCN1C(=O)CNC1CCN(C(=O)C2CCCCC2)CC1` [Ex. 4A, 1-[[[1-(cyclohexylcarbonyl)-4-piperidinyl]amino]acetyl]-2-cyano-(S)-pyrrolidine, monohydrochloride] registered a 50% inhibitory concentration (IC50) of 20 nM.
